The results in this text go back to patent publication US20070154457A1, “Use of eIF-5A to kill multiple myeloma cells” (Senesco Technologies, Inc., priority 2005, published 2007).

For this assay, the system named is eIF5A1. The experiment in a line: Western blot of eIF5A1 expression in RKO cells. The conditions noted are these: 3 mM. As for the experimental part: Protein for Western blotting was isolated using boiling lysis buffer [2% SDS, 50 mM Tris-HCl (pH 7.4)]. Protein concentrations were determined using the Bicinchoninic Acid Kit (Sigma). For Western blotting, 5 μg of total protein was fractionated on a 12% SDS-polyacrylamide gel and transferred to a polyvinylidene difluoride membrane. The primary antibodies used were anti-eIF5A (BD Transduction Laboratories; mouse IgG) and anti-β-actin (Oncogene; mouse IgM), both at a dilution of 1:20,000 in 5% milk. The secondary antibodies were anti-mouse IgG conjugated to horseradish peroxidase (HRP; Sigma) and anti-mouse IgM-HRP (Oncogene). Antibody-protein complexes were visualized using the enhanced chemiluminescence method (ECL, Amersham Biosciences). Following detection of eIF5A, the blots were stripped according to the protocol provided by the ECL Plus Western blotting detection system and reprobed with anti-β-actin antibody to confirm equal loading.
For orientation: In western blotting, separated proteins are transferred to a membrane and probed.

Some compounds may have been tested in ways that are not shown here.

Turning to Sodium nitroprusside, the eIF5A1 protein expression result is on record as “upregulate eIF5A1 protein expression”.
